Entries after “also recorded” stand apart in the source; their conditions may differ.
Key:
[1] = test system: TCR-CTL; assay: Coculture of engineered NY-ESO-1 TCR-CTL with PMN and ascites supernatants; CTL proliferation by [3H] thymidine incorporation; type: cell-based, human; conditions: rIL-2 (100 IU) added at 48 h
Procedure: FIG. 7. PMN suppressor phenotype inhibits engineered effector T cell activation but not antigen-specific cytotoxicity. Engineered CTL expressing NYESO1-specific TCR (TCR-CTL) are candidates for adoptive cell therapy in EOC. TCR-CTL and PMN were used in coculture at 1:1. PMN and/or ascites supernatants (ASC; 50% final well volume) were added to anti-CD3/CD28-stimulated TCR-CTL. After 72 h of coculture (A) or after rIL-2 (100 IU) addition at 48 h (B), CTL proliferation was measured by [^3H] thymidine incorporation (16-18 h) (n=3). A) ASC and MD-ASC rendered PMN suppressive to TCR-CTL, while PK-ASC had no effect. […] C) IFN-gamma expression was reduced with PMN and/or ASC or PK-ASC, as measured by flow cytometry after 72 h of coculture (n=2). Symbols represent individual samples (n) and bars represent SEM. Statistical comparisons were by ANOVA with Tukey post-test (*, p<0.05; **, p<0.01; ***, p<0.001; ns, not significant).
Freshly isolated T cells (1e5) were stimulated with anti-CD3/CD28 Dynabeads (2.5 μl; Thermo Fisher Scientific) and cocultured with autologous PMN (1:1) and ascites supernatants (50% final well volume) in an incubator at 37° C., 5% CO2. […] Cells were harvested onto a Filtermat and counted on a Beta counter. Results are expressed as net cpm [calculated by subtracting the average cpm of unstimulated T cells from the average cpm of stimulated T cells]. […]

[2] = test system: PMN suppressor phenotype (suppression of anti-CD3/CD28-stimulated T cell proliferation); assay: Coculture of PMN with ascites supernatants and anti-CD3/CD28-stimulated T cells; T cell proliferation by [3H] thymidine incorporation; type: cell-based, human; conditions: primary T cells; rIL-2 (100 IU) added at 48 h, assessed at 72 h
Procedure: Freshly isolated T cells (1e5) were stimulated with anti-CD3/CD28 Dynabeads (2.5 μl; Thermo Fisher Scientific) and cocultured with autologous PMN (1:1) and ascites supernatants (50% final well volume) in an incubator at 37° C., 5% CO2. After 72 h, [^3H] thymidine (1 μCi per well) was added and allowed to incorporate for 16-18 h. Cells were harvested onto a Filtermat and counted on a Beta counter. Results are expressed as net cpm [calculated by subtracting the average cpm of unstimulated T cells from the average cpm of stimulated T cells].
Where indicated, T cells, PMN, and ascites supernatants underwent various pretreatments. Where indicated, T cells were pretreated for lh with neutralizing antibody against ICAM-I (1-10 μg), IgG1 isotype (1-10 μg), or media (RPMI 1640, 5-10% heat-inactivated FBS, HEPES, sodium pyruvate, non-essential amino acids, and penicillin-streptomycin). […]

For rIL-2: recombinant IL-2, the “effect on suppression of TCR-CTL proliferation” value [1] was “reversed suppression; also recorded: completely restored proliferation” and the “rescue of T cell proliferation (reversal of T cell suppression)” value [2] was “did not rescue T cell proliferation; also recorded: did not reverse T cell suppression”.

Reference: patent publication US20210161999A1, “COMPOSITIONS AND METHODS RELATED TO OVERCOMING INNATE IMMUNE BARRIERS TO CANCER IMMUNOTHERAPY” (Health Research, Inc., priority 2018, published 2021)
